Reference: patent US6403605B1, “Methods for the normalization of sexual response and amelioration of long term genital tissue degradation” (Queen's University at Kingston, priority 1998, dated 2002)

Assay: Pharmacokinetic evaluation of apomorphine (FIG. 1, mean plasma concentrations after sub-cutaneous and sublingual doses)
Conditions: subcutaneous delivery

time required to reach maximum blood serum levels: approximately 15 minutes
Compound: CN1CCc2cccc3c2[C@H]1Cc1ccc(O)c(O)c1-3 [Apomorphine, (R)-5,6,6a,7-tetrahydro-6-methyl-(4H)-dibenzo[de,g]quinoline-10,11-diol]
